Results taken from PubChem BioAssay AID739 (SRMLSC, 2007).
The list shows a part of the results, in another mix than the full data. Activity calls are given as the source filed them. No stated cut-off is given here; in the data, active means inhibition above about 30%; inactive means the rest.

Test: phenotypic screen on post-Golgi transport, primary screen (AID 739);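 further: yeast cells grown in 1536-well plates; yeast grown about 18 h at 30C before absorbance read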
Details: post-Golgi transport phenotypic cell assay; at 10 µM; hits give high values

Row | Structure (SMILES) | inhibition
1 | CP(=O)(OC12CC3CC(CC(C3)C1)C2)OC12CC3CC(CC(C3)C1)C2 | inactive: -0.16%
2 | CCN(CC)CC(O)COC(=O)C(O)(c1ccccc1)C1CCCCC1 (configuration not stated) | inactive: -6.25%
3 | CP(=O)(Oc1ccccc1)N1CCOC1=O (configuration not stated) | inactive: 0.97%
4 | CC(C)(C)c1ccc(OP(C)(=O)O)cc1 | inactive: -9.5%
5 | CP(=O)(Nc1ccc(Cl)cc1)Oc1ccc(F)cc1 (configuration not stated) | inactive: 2.08%
6 | COc1ccc(OP(C)(=O)Nc2ccccn2)cc1 (configuration not stated) | inactive: -0.16%
7 | CN(C)CCOC(=O)C(O)(c1ccccc1)C1CCCC1 (configuration not stated) | inactive: 0.78%
8 | Cc1c(NP(C)(=O)Oc2ccc(C(C)C)cc2)c(=O)n(-c2ccccc2)n1C (configuration not stated) | inactive: 4.38%
9 | COc1ccccc1OP(C)(=O)Nc1ccc(C)cc1C (configuration not stated) | inactive: -0.65%
10 | CP(=O)(Nc1ccccn1)Oc1ccccc1 (configuration not stated) | inactive: 7.93%
11 | CCc1ccc(OP(C)(=O)O)cc1 | inactive: 16.8%
12 | COc1ccccc1OP(C)(=O)Nc1ccc(C)c(C)c1 (configuration not stated) | inactive: 3.29%
13 | Cc1nc2ccc3ccccc3c2o1.O=[N+]([O-])c1cc([N+](=O)[O-])c(O)c([N+](=O)[O-])c1 | inactive: -2.58%
14 | CP(=O)(Nc1ccccc1)Oc1ccc(F)cc1 (configuration not stated) | inactive: -4.97%
15 | CP(=O)(Nc1ccccc1F)Oc1ccccc1 (configuration not stated) | inactive: 4.97%
16 | CCOP(C)(=S)SCC(=O)NC(C)(CC)C(=O)O (configuration not stated) | active: 51.8%

Row | Structure (SMILES) | inhibition
17 | CP(=O)(Nc1ccc2c(c1)OCCO2)Oc1ccccc1 (configuration not stated) | inactive: -5.06%
18 | Cc1ccccc1NP(C)(=O)Nc1ccccc1C | inactive: -4.73%
19 | COc1ccc(OP(C)(=O)Nc2cccc(Br)c2)cc1 (configuration not stated) | inactive: -2.12%
20 | CN(C)CCOC(=O)C(O)(c1ccccc1)C1CCCCC1 (configuration not stated) | inactive: 7.44%
21 | COc1ccccc1OP(C)(=O)Nc1c(C)cccc1C (configuration not stated) | inactive: -7.66%
22 | Cc1nc2ccc3ccccc3c2s1.O=[N+]([O-])c1cc([N+](=O)[O-])c(O)c([N+](=O)[O-])c1 | inactive: -3.71%
23 | Cc1cc(C)cc(OP(C)(=O)Nc2ccc(C)cc2C)c1 (configuration not stated) | inactive: -3.42%
24 | Cc1ccc(C)c(NP(C)(=O)Oc2ccccc2)c1 (configuration not stated) | inactive: 26%
25 | Cc1cc(C)cc(OP(C)(=O)Nc2ccccn2)c1 (configuration not stated) | inactive: 8.69%
26 | Cc1ccc(NP(C)(=O)Oc2ccccc2)c(C)c1 (configuration not stated) | inactive: 1.57%
27 | COc1ccccc1OP(C)(=O)Nc1ccc(C)cc1 (configuration not stated) | inactive: 2.97%
28 | COc1ccc(OP(C)(=O)Nc2cccc(F)c2)cc1 (configuration not stated) | inactive: 2.14%
29 | CP(=O)(NC(=O)Nc1ccccc1)Oc1ccccc1 (configuration not stated) | inactive: -3.67%
30 | CCOP(C)(=S)SCC(=O)NC(C)C(=O)O (configuration not stated) | inactive: -15.9%
31 | CP(=O)(Nc1ccccn1)Oc1ccc(Cl)cc1 (configuration not stated) | inactive: 19.5%
32 | CP(=S)(Nn1cnnc1)Oc1ccccc1 (configuration not stated) | inactive: 17.4%
